Assay results from patent publication US20240279692A1, “PROCESS OF […] METAL SALT HYDRATE AND 3-HYDROXYPROPIONIC ACID” (LG CHEM, LTD., priority 2021, published 2024).

Assay: water solubility of 3-hydroxypropionic acid salt crystal
Format: physicochemical
Details: in water, at room temperature

**Q.** Which water solubility does the source give for “3-hydroxypropionic acid calcium salt [Ca(3HP)2]” here?
**A.** Its water solubility is 450 mg/mL.
